# Measurements as given in patent US20260209350A1.
# T1: recombinant human TREM2-DAP12 fusion protein on cells (human) (UniProt Q9NZC2)
# T1 sequence: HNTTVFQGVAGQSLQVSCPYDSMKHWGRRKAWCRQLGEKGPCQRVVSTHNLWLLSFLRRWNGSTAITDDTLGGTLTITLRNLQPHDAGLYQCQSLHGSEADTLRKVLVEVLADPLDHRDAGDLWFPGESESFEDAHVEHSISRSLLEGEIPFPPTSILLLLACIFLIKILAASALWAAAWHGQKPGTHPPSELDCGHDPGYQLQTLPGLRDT
# Molecular target: T1, recombinant human TREM2-DAP12 fusion protein on cells (human)
# Experiment: FACS, hTrem2 cells
binder,measurement,value
"Ab79 (antibody, human IgG1, V domains shown) VH: EVQLVESGGGLVQPGGSLRLSCAASGFTFSSYSMNWVRQAPGKGLEWVSYISGSSSTIYYADSVKGRFTISRDNAKNSLYLQMNSLRAEDTAVYYCARGGRRHYGGMDVWGQGTTVTVSS VL: DIVMTQSPLSLPVTPGEPASISCRSSQSLLHSNGYNYLDWYLQKPGQSPQLLIYLGSHRASGVPDRFSGSGSGTDFTLKISRVEAEDVGVYYCMQALESPRTFGGGTKVEIK",MFI,900 MFI
